# In ChEMBL document CHEMBL1132301, “Carbonic anhydrase inhibitors. Synthesis of water-soluble, topically effective, intraocular pressure-lowering aromatic/heterocyclic sulfonamides containing cationic or anionic moieties: is the tail more important than the ring?” (J Med Chem, 1999):
# Protein sequences, listed by entry. Tags and fused reporters are not part of them. Lines headed by an entry give the natural chain unless they say otherwise; changes in a name come on top.
# UniProt P00915: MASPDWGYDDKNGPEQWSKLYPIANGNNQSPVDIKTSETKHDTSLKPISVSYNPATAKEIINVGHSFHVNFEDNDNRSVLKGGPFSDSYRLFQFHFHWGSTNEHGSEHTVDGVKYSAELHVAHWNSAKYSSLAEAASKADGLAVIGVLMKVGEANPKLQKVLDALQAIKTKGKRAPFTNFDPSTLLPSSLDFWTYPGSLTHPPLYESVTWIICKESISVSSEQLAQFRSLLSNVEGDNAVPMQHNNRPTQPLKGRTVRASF
# Experiments:
# [1] = molecular target: T1, Carbonic anhydrase 4 (Bos taurus, UniProt Q95323)
# T1 sequence (Q95323 whole entry): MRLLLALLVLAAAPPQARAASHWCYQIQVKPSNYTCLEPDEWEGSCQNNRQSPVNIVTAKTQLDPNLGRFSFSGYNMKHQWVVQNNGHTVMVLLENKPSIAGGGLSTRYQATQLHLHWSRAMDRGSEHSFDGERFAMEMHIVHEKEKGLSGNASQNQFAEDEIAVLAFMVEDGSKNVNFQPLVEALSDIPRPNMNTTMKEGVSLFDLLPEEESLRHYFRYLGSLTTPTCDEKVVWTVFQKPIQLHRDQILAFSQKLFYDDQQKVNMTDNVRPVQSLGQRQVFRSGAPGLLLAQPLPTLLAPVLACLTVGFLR
# [2] = molecular target: Carbonic anhydrase 1 (Homo sapiens, UniProt P00915)
SMILES,Ki [1],Ki [2]
NS(=O)(=O)c1ccc(CNC(=O)c2cccc(C(=O)O)n2)cc1,70 nM,–
NS(=O)(=O)c1ccc(CCNC(=O)c2cccc(C(=O)O)n2)cc1,–,550 nM
